Measured values taken from patent US7615560B2, “Thienopyrimidines as cooling agents” (Conopco, Inc., priority 2004, dated 2009).

By UniProt entry, the sequences of proteins in these tests, tags left out.
UniProt Q7Z2W7, whole entry: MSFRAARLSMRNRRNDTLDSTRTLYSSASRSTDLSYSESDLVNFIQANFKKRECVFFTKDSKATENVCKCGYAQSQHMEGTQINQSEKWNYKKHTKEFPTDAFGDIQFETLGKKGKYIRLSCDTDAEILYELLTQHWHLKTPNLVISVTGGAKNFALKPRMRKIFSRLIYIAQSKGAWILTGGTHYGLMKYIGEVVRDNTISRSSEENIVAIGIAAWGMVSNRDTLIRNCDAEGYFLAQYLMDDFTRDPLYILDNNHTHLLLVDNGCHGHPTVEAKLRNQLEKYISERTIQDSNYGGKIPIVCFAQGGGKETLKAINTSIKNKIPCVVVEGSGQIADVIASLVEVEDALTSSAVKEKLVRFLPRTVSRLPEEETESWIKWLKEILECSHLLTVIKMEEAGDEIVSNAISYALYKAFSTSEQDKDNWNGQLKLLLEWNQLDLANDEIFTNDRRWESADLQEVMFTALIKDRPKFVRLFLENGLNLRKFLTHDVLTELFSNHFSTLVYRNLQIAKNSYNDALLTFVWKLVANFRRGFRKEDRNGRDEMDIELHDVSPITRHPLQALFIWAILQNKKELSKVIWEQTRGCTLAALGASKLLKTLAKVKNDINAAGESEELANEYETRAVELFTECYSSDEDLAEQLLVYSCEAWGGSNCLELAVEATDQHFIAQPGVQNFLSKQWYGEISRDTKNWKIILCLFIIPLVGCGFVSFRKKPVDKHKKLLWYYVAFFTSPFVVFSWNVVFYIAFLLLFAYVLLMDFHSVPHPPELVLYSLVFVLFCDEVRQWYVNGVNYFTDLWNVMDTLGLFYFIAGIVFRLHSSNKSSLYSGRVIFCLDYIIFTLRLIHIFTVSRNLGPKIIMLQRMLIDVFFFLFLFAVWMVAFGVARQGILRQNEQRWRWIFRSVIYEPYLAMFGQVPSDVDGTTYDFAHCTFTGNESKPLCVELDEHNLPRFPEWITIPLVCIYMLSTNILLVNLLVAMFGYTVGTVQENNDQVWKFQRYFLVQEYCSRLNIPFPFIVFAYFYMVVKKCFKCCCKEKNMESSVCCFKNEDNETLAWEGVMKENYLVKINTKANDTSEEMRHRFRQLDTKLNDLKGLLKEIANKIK

Biological target: human TRPM8 channel (Homo sapiens, UniProt Q7Z2W7)
Test: Intracellular calcium (fluo-4 fluorescence) assay in HEK 293 cells stably expressing human TRPM8
Conditions: fluo-4 calcium fluorescence, table of Examples 2-12
Text: Humans can detect changes in temperature from noxious cold (<8 C) to noxious heat (>52 C) due to activation of sensory nerve fibers. “The principal temperature sensors in the sensory nerve fibers are members of a family of transient receptor potential (TRP) cation channels” (Voets et al., 2004). In humans the sensation of cooling is elicited by activation of channel TRPM8, which is activated at temperatures below 28 C (Voets et al., 2004). Furthermore human TRPM8 is activated by compounds such as menthol (Brauchi et al., Proc. Natl. Acad. Sci. USA, 2004, Oct. 26; 101 (43):15494-9; Voets et al., Nature, 2004, 430 (7001): 748-54). A heterologous expression system, in which HEK cells stably expressing the human TRPM8 channel, was used to set up a screening system in order to search for compounds that elicit a cooling sensation.
The open reading frame of human cDNA TRPM8 from position 41-3355bp was amplified from a human prostate cDNA library (Stratagene) using primers […] and […] as previously described previously (Tsavalier et al., 2001).
HEK 293 cells were transfected with human TRPM8 cDNA that was cloned into a pcDNA4 vector, using a standard calcium phosphate method (Wigler et al., 1977). The transfected cells were placed under selective pressure by growth in 100 μg/mL zeocin (Invitrogen) and cells stably expressing the human TRPM8 were generated.
Cells stably expressing the human TRPM8 were seeded in a 96 well plate (coated with polylysine) at a density of 10^5 cells /well in 200 μl of media. The next day the cell medium was removed and the cells were incubated a DMEM solution (supplemented with 0.001% BSA w/w, 0.01% FCS v/v, 0.02% plurinoc acid, 1 mM probenicide) that contained the calcium sensitive fluorescent dye fluo-4 (˜3 μM, Molecular Probes) at 37° C. for 1 hr. The dye was then removed and the cells were incubated in a Tyrodes buffer (containing 1 mM probenicide, pH 7.4) pre-equilibrated at a certain temperature (i.e 37° C.) and the intracellular calcium levels were monitored at the same temperature, using the Novostar plate reader. The cells in each well were illuminated at 480 nm, and the fluorescent light emitted at 510 nm was measured. The fluorescence was determined before (basal fluorescence) and after the addition of increasing concentrations of a test compound. The maximal increase in fluorescence (DFmax) caused by a compound, was measured as the peak fluorescence induced by that compound minus the basal fluorescence. The potency of a compound is expressed as the EC50 and it is the concentration of the compound that produces one-half of the maximal response (DFmax).

Row | EC50 [µM] | Compound
1 | 70 | CC(C)Cn1cnc2sc3c(c2c1=N)CCCCC3
2 | 30 | N=c1c2c3c(sc2ncn1Cc1ccccc1)CCCC3
3 | 55 | N=c1c2c3c(sc2nc2n1CCC2)CCCC3
4 | 25 | CCCCn1cnc2sc3c(c2c1=N)CCCCC3
5 | 85 | N=c1c2c3c(sc2ncn1CCCn1ccnc1)CCCC3
